The values below are quoted from earlier work in patent US20120202756A1, “USE OF PRODRUGS TO AVOID GI MEDIATED ADVERSE EVENTS” (priority 2009, published 2012).

This data set has as its system dog oesophagus. Conditions: perfusion of the dog oesophagus; cited from earlier work.

In the case of `NCCCC(O)(P(=O)(O)O)P(=O)(O)O` [alendronate], the oesophageal damage result is listed as “marked oesophageal damage”.
